Experimental data from publication PMC4281022 (Journal of medicinal chemistry, 2013).

The chains behind the UniProt entries cited, without tags or fusion partners.
UniProt P21554, whole entry: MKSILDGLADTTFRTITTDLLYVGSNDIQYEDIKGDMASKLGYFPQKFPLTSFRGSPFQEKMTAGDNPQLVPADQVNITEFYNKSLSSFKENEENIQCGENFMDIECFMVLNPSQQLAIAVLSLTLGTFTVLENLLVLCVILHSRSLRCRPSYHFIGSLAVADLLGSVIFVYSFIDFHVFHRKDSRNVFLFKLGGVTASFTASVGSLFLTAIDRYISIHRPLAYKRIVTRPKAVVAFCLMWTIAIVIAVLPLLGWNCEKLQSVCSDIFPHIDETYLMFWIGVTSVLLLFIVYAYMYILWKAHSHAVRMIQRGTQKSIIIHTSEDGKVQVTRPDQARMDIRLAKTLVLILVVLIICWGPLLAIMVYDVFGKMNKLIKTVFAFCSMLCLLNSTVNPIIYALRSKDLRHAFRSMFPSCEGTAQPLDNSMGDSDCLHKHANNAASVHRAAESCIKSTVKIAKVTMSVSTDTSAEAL
UniProt P47746, whole entry: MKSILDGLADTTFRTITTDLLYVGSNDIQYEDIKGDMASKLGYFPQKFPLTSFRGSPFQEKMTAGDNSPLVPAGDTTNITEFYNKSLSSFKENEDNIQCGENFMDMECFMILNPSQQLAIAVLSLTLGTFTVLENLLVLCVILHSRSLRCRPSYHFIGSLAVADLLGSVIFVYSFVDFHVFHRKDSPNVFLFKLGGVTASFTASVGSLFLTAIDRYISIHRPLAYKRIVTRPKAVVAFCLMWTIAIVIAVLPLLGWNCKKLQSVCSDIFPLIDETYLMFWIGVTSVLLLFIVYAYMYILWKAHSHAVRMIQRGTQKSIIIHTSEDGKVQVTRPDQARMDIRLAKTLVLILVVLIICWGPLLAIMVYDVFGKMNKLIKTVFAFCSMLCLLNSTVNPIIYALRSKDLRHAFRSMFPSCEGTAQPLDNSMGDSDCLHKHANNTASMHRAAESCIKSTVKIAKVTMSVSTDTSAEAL

What was measured:
human CB1 = human CB1 (Homo sapiens, UniProt P21554); assay: [3H]CP55940 radioligand displacement at CB1, membranes of CHO-K1 cells; format: binding; conditions: ratio of Ki values
CB1 receptor = CB1 receptor (Mus musculus, UniProt P47746); assay: Tetrad test: attenuation of central effects of Δ^9-THC; format: in vivo; conditions: 30 mg/kg i.v., ICR mice, p < 0.05, with or without 9

O=C(NC1CCN(c2ncnc3c2nc(-c2ccccc2Cl)n3-c2ccc(Cl)cc2)CC1)Oc1ccccc1 [Compound 7, Phenyl N-{1-[8-(2-chlorophenyl)-9-(4-chlorophenyl)-9H-purin-6-yl]piperidin-4-yl}carbamate]
Selectivity for CB1 over CB2 (human CB1): > 4000 fold

CCCCCc1cc(O)c2c(c1)OC(C)(C)[C@@H]1CCC(C)=C[C@@H]21 [Δ^9-THC, Δ^9-tetrahydrocannabinol, reference compound]
Antinociception, warm water tail withdrawal (CB1 receptor): produced antinociception
Catalepsy, ring immobility (CB1 receptor): catalepsy
Hypothermia, rectal temperature (CB1 receptor): hypothermia
Spontaneous (locomotor) activity (CB1 receptor): significantly suppressed locomotor activity
